Reference: PubChem BioAssay AID1645856 (Buhrlage Lab, Dana-Farber Cancer Institute and Novartis …, 2021)
The list shows a part of the results, in another mix than the full data. Calls of active or inactive are those of the source. Cut-off read from the data, not from the text of the source: active = inhibition above about 30%; inactive = the rest.

Amino acid sequences for entries named in this document (tags omitted).
UniProt Q14694, whole entry: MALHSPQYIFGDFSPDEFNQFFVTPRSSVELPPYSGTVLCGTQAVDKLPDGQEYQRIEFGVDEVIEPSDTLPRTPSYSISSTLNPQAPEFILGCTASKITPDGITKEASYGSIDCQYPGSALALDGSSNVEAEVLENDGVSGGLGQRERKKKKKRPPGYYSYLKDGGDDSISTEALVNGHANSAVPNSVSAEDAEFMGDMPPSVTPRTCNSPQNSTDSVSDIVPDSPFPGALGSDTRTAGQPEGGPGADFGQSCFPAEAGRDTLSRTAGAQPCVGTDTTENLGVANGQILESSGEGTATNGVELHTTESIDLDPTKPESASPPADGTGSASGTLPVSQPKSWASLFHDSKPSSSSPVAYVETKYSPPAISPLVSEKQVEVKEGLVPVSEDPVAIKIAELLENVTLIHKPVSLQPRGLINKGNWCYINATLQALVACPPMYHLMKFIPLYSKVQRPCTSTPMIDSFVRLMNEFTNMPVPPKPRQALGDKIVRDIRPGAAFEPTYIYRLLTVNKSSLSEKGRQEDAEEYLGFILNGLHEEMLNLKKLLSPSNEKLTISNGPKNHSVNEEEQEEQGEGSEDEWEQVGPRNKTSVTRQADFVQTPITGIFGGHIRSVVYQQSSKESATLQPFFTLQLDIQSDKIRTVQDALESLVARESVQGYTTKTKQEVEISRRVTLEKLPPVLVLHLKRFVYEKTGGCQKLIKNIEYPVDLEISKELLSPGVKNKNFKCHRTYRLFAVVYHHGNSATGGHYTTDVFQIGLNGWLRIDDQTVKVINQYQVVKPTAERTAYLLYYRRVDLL

Target: Ubiquitin carboxyl-terminal hydrolase 10 (Homo sapiens) (UniProt Q14694)
Assay: blocks human USP10 ubiquitin-rhodamine cleavage (AID 1645856)
Details: purified USP10, Ub-rhodamine fluorescence, 60 min; at 20 µM; hits give high values

Row | SMILES | inhibition
1 | CN(C)c1ccc(C(=O)NCC2(N3CCCCC3)CCCCC2)cc1 | inactive: 1.79%
2 | N#Cc1ccc(C(=O)NCC2(N3CCCCC3)CCCCC2)cc1 | inactive: -2.1%
3 | Cc1cc(C(=O)NCC2(N3CCOCC3)CCCCC2)c2ccccc2n1 | inactive: -3.8%
4 | O=C(NCC1(N2CCCCC2)CCCCC1)c1ccc2ncsc2c1 | inactive: -4.06%
5 | Cc1ccccc1C(=O)NCC1(N2CCOCC2)CCCCC1 | inactive: 0.00246%
6 | O=C(NCC1(N2CCOCC2)CCCCC1)c1ccccc1Cl | inactive: 1.73%
7 | O=C(NCC1(N2CCCCC2)CCCCC1)c1ccc(F)cc1 | inactive: -6.16%
8 | CC1CN(CCc2ccccc2)CCC1=O (stereo not drawn) | inactive: -0.111%
